The list shows a part of the results, in another mix than the full data. Some results for these compounds are left out of this collection, so the calls shown say nothing about other tests. Calls of active or inactive are those of the source.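 How the source made its calls: active means inhibition above the mean inhibition of all tested compounds plus 3 SD (cut at about 28% in these data); inactive means the rest.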
Test: cytotoxicity toward Jurkat T cells, primary screen, cytotoxicity control, cell-based, Jurkat E6.1, 60K MLSMR library (AID 463)
Conditions: Jurkat E6.1 viability, ATP luminescence, 48 h; at 4 µM; hits give high values
For `O=C(OC1CN2CCC1CC2)C(CO)(c1ccccc1)c1ccccc1` (configuration not stated), the inhibition was inactive: -2%. In the case of `CN(C)c1cccc(C(=O)NCC2(N(C)C)CCCCC2)c1`, the inhibition was inactive: -0.1%.

Reference: PubChem BioAssay AID463 (The Scripps Research Institute Molecular Screening Center, 2006)
